Molecular target: T1, ErbB2 (eBiosciences Inc.) (UniProt P04626, in part)
T1 construct: also called HER2; Her2
Experiment: SPR (BioRad Proteon), antibody captured, ErbB2 as analyte, 1:1 Langmuir fit

B1: Variant 7-1 (antibody, human IgG1, kappa, V domains shown)
VH: [in this place about 120 residues]
VL: DIQMTQSPSSLSASVGDRVTITCRASQDVNTAVAWYQQKPGKAPKLLIYSASFLYSGVPSRFSGSRSGTDFTLTISSLQPEDFATYYCQQHYTTPPTFGQGTKVEIKR
notes: also called m5-HC + wt-LC
Binder B1 has a Kd of 243 pM, a koff of 0.000172 s⁻¹ and a kon of 707000 M⁻¹ s⁻¹.

Reference: US20130266564A1 (NATIONAL RESEARCH COUNCIL OF CANADA, published 2013)
